{"source": "paper PMC5777145", "about": "(Analytical chemistry, 2017)", "key": {"salmon testes DNA [1]": {"tested_on": "salmon testes DNA", "conditions": "human, rat (enzyme sources)"}, "salmon testes DNA [2]": {"tested_on": "salmon testes DNA", "conditions": "human, rat (enzyme sources), pH 7.4"}}}
{"smiles": "Nc1ccc(-c2ccccc2)cc1", "note": "[4ABP, 4-Aminobiphenyl]", "values": [{"measurement": "influence of cyt P450 source on relative DNA adduction rate", "setting": "salmon testes DNA [1]", "value": "Supersome 1A2 had the largest relative DNA oxidation and adduction rates"}, {"measurement": "influence of cyt P450 source on relative DNA oxidation rate", "setting": "salmon testes DNA [2]", "value": "Supersome 1A2 had the largest relative DNA oxidation and adduction rates"}]}
